Test results from patent publication US20250064844A1 (Emory University, priority 2020, published 2025).

Details: both, cynomolgus monkey, in vivo, po

| Compound | improvement of the bioavailability of EIDD-1931 by the prodrug |
| --- | --- |
| CC(C)C(=O)OC[C@H]1O[C@@H](n2ccc(NO)nc2=O)[C@H](OC(=O)C(C)C)[C@@H]1OC(=O)C(C)C [EIDD-2800] | 4-8 fold |
| CC(C)C(=O)OC[C@H]1O[C@@H](n2ccc(NO)nc2=O)[C@H](O)[C@@H]1O [EIDD-2801] | 4-8 fold |
| CC(C)[C@H](N)C(=O)OC[C@H]1O[C@@H](n2ccc(NO)nc2=O)[C@H](O)[C@@H]1O [EIDD-2898] | 4-8 fold |
